# Measured values reported in patent publication US4707477A, “Treating and preventing agent for ischemic cardiac disease and arrhythmia” (priority 1985, dated 1987).
# Assay: Acute toxicity, LD50, Wistar rat
# Conditions: in vivo, po, male
structure (smiles),measurement,value
CCCC(=O)N1CCCN(c2nc(N)c3cc(OC)c(OC)cc3n2)CC1 [bunazosin hydrochloride],LD50,980 mg/kg

# Counter-ions that a name gives are not always drawn.
